Results taken from patent publication US11285169B2, “Methods for modulating chemotherapeutic cytotoxicity” (The United States of America, as represented by the …, priority 2013, dated 2022).

Assays:
WT Jurkat cells [1] = conditions: 48 hours, 10^-9 to 10^-4 M, CellTiter-Glo
[2] = system: CD47 deficient (CD47 KO) Jurkat T cells; conditions: for Maximal Response CD47 KO (RLU): CD47 KO Jurkat T cells, 48 hours, 10^-9 to 10^-4 M, CellTiter-Glo
WT Jurkat cells [3] = assay: cells; conditions: Homo sapiens, 48 h, read-out: AC50 (μM) WT
[4] = system: CD47 deficient (CD47 KO) Jurkat T cells; assay: cells; conditions: Homo sapiens, 48 h, read-out: AC50 (μM) CD47 KO

Row | Structure (SMILES) | Maximal Response WT (RLU) (WT Jurkat cells [1]) | Maximal Response CD47 KO (RLU) [2] [RLU] | Δ LogAC50 CD47KO-WT [2] | AC50 (WT Jurkat cells [3]) [µM] | AC50 [4] [µM]
1 | FC(F)(F)c1ccc(/C=C/c2nc(COc3ccc(CCCCn4ccnn4)cc3)co2)cc1 [Mubritinib] | 17.243 |  |  |  | 
2 | CS(=O)(=O)Nc1ccc([N+](=O)[O-])cc1Oc1ccccc1 [Nimesulide] | 17.364 | 82.485 |  |  | 
3 | Cn1cc(-c2cnn3c(N)c(Br)c([C@@H]4CCCNC4)nc23)cn1 [SCH-900776] |  |  | 0.6 | 0.372 | 1.48
4 | NC(=O)c1cccc2cn(-c3ccc([C@@H]4CCCNC4)cc3)nc12 [Niraparib] | 48.69 | 81.286 |  |  | 
5 | CCCc1cc(=O)[nH]c(=S)[nH]1 [Propylthiouracil] | 82.824 |  |  |  | 
6 | NNCCc1ccccc1 [Phenelzine] | 13.556 | 51.795 |  |  | 
